Measured values published in ChEMBL document CHEMBL5500416, “Development of a Potent and Selective G2A (GPR132) Agonist” (J Med Chem, 2024).
The source made the active and inactive calls. No cut-off for these calls is given here.

Legend:
[1] = target: T1, Chemerin-like receptor 2 (Homo sapiens) (UniProt P46091); assay: Displacement of TAMRA-labeled C9 from Nluc/eYFP-tagged GPR1 (unknown origin) transfected in HEK293 cells incubated for 1 hrs by BRET analysis; format: cell-based
T1 sequence (whole entry): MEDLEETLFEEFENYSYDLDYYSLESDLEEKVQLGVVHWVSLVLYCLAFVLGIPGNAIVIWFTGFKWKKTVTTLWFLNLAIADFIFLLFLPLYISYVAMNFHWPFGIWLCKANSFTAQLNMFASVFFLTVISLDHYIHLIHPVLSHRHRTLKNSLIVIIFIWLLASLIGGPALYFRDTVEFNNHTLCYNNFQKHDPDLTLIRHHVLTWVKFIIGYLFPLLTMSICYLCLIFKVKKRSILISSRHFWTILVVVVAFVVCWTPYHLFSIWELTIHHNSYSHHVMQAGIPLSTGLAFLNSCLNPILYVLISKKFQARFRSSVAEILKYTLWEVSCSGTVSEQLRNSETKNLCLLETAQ

[2] = target: T1, Chemerin-like receptor 2 (Homo sapiens); assay: Agonist activity at human GPR1 expressed in HTLA cells assessed as beta-arrestin recruitment at 10 uM incubated for 24 hrs by PRESTO-Tango assay; format: functional, cell-based; conditions: filed as agonist
[3] = target: T2, Probable G-protein coupled receptor 132 (Mus musculus) (UniProt Q9Z282); assay: (§1) Agonist activity at G2A in capsaicin-induced mouse primary sensory neurons assessed as induction of TRPV1 sensitization by measuring increase in amplitude of calcium response at 100 nM preincubated with capsaicin for 30 sec followed by compound administration for 4 mins in presence of (S)-N-(1-(cyclohexylamino)-1-oxo-3-phenylpropan-2-yl)-6-hydroxy-4'-methoxy-[1,1'-biphenyl]-3-carboxamide and measured 30 sec after second capsaicin addition by calcium imaging analysis; format: cell-based; conditions: Primary sensory neuron, time 4.5 min
T2 sequence (whole entry): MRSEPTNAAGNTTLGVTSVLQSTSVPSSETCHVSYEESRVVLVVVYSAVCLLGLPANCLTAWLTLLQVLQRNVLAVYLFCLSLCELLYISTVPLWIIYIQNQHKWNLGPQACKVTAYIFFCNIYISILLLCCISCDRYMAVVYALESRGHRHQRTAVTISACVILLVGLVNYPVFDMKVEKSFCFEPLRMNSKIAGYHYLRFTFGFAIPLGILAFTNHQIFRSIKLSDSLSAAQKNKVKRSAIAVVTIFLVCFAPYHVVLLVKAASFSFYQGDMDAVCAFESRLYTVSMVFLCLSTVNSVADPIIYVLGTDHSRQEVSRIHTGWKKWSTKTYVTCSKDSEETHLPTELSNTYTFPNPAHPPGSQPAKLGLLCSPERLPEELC

[4] = target: T2, Probable G-protein coupled receptor 132 (Mus musculus); assay: as §1, with “400” for “100”, “mins” for “mins in presence of (S)-N-(1-(cyclohexylamino)-1-oxo-3-phenylpropan-2-yl)-6-hydroxy-4'-methoxy-[1,1'-biphenyl]-3-carboxamide”; format: cell-based; conditions: Primary sensory neuron, filed as agonist, time 4.5 min
[5] = target: T2, Probable G-protein coupled receptor 132 (Mus musculus); assay: as §1, with “200” for “100”, “2” for “4”, “mins” for “mins in presence of (S)-N-(1-(cyclohexylamino)-1-oxo-3-phenylpropan-2-yl)-6-hydroxy-4'-methoxy-[1,1'-biphenyl]-3-carboxamide”; format: cell-based; conditions: Primary sensory neuron, filed as agonist
[6] = target: T2, Probable G-protein coupled receptor 132 (Mus musculus); assay: as §1, with “400” for “100”; format: cell-based; conditions: Primary sensory neuron, time 4.5 min
[7] = target: T2, Probable G-protein coupled receptor 132 (Mus musculus); assay: as §1, with “1 uM” for “100 nM”, “2” for “4”, “mins” for “mins in presence of (S)-N-(1-(cyclohexylamino)-1-oxo-3-phenylpropan-2-yl)-6-hydroxy-4'-methoxy-[1,1'-biphenyl]-3-carboxamide”; format: cell-based; conditions: Primary sensory neuron, filed as agonist

SMILES: O=C(N[C@H](Cc1ccccc1)C(=O)O)c1cccc(OCc2cccnc2)c1
- Activity [1]: inactive
- Activity [2]: Active
- Activity [3]: inactive

SMILES: CCCCC/C=C\C=C\C(O)CCCCCCCC(=O)O (racemic)
- Activity [4]: Active
- Activity [5]: Active
- Activity [6]: inactive

SMILES: O=C(NC(Cc1ccccc1)C(=O)O)c1cccc(OCc2cccnc2)c1 (configuration not stated)
- Activity [7]: Active
